Assay results: patent publication US20100069304A1, “PROTECTIVE EFFECTS OF INHIBITING THE INTERACTION OF CALMODULIN AND MUTANT HUNTINGTIN PROTEIN” (priority 2008, published 2010)

Sequences of proteins named here, by UniProt entry; tags and fusion partners are left off. A line that says so, or that is headed by a name, gives the form on record, which may keep a tag or linker.
UniProt P42858, with tags, fused parts or gaps limits assumed, stated change not applied: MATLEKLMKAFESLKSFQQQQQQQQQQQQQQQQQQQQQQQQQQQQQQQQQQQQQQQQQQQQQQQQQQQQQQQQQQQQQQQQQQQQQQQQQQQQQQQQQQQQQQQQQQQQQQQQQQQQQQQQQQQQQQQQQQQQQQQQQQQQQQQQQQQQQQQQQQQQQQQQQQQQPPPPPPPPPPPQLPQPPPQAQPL

Legend:
[1] = target: T1, mutant huntingtin (htt-N63-148Q) (Homo sapiens, UniProt P42858, INS26QQQQQQQQQQ/INS27QQQQQQQQQQ/INS28QQQQQQQQQQ/INS29QQQQQQQQQQ/INS30QQQQQQQQQQ/INS31QQQQQQQQQQ/INS32QQQQQQQQQQ/INS33QQQQQQQQQQ/INS34QQQQQQQQQQ/INS35QQQQQQQQQQ/INS36QQQQQQQQQQ/INS37QQQQQQQQQQ/INS38QQQQQQQ); experiment: TG-modified huntingtin (81D4 immunoprecipitation and immunoblot) in transfected HEK-293T cells; type: cell-based; conditions: HEK-293T cells with htt-N63-148Q, TG2 and CaM construct, compared to htt-N63-148Q, TG2 and vector (control)
T1 construct: myc; expressed in transfected cells; host or cells: HEK-293T

[2] = tested on: IP3R-mediated Ca^2+ release; experiment: Carbachol-stimulated intracellular Ca2+ release (Fura-2) in transfected HEK-293T cells; type: cell-based, human; conditions: 60 μM carbachol, compared to htt-N63-148Q and TG2 expressing cells

## CaM-C-term: calmodulin fragment: last 72 amino acids, contains the third and fourth Ca2+ binding sites
[1]
  decrease in TG-modified huntingtin: ~2 fold
[2]
  carbachol-stimulated Ca^2+ release (in words): small decrease that did not reach statistical significance
